The record followed here is article PMC8819633 (Journal of medicinal chemistry, 2021).

The test system of the experiment is MDA-MB-468 cells. The experiment is described as follows: Apoptosis assay. Conditions: MDA-MB-468 cells (Figure S5). The class given is cell-based, human.

As for `CC(C)NC[C@@H](C(=O)N1CCN(c2ncnc3c2[C@H](C)C[C@H]3O)CC1)c1ccc(Cl)cc1` [GDC-0068, reference compound], the apoptosis induced is on record as at most 3%.
